Literature values as cited in patent US12605367B2, “Methods of treatment and/or prevention of disorders and symptoms related to BKCa and/or SK channelophathies” (UNIVERSITE DE BORDEAUX, priority 2019, dated 2026).

Test system: autistic children
Conditions: cited from earlier work

Cc1nc2n(c(=O)c1CCN1CCC(c3noc4cc(F)ccc34)CC1)CCCC2 [risperidone]
adverse events: weight gain, increased appetite, fatigue, drowsiness, dizziness, and drooling
